Measurements reported in ChEMBL document CHEMBL1124922 (J Med Chem, 1990).

Experiments:
[1] = Evaluated for growth inhibition of AA8 cells under aerobic conditions; details: cho-aa8
[2] = Evaluated for inhibitory concentration against UV-4 cells under aerobic conditions with a compound exposure of 18 h
[3] = Evaluated for (CF10) the concentration x time to reduce the surviving fraction to 10% of controls in the stirred suspension assay (SSC) in UV-4 cells under aerobic conditions
[4] = Evaluated for inhibitory concentration against UV-4 cells under aerobic conditions with a compound exposure of 1 h
[5] = Half-life in culture medium was determined at 37 degrees Celsius in alpha MEM with 10% fetal calf-serum (FCS); details: cattle
[6] = Evaluated for growth inhibition of AA8 cells under aerobic or hypoxic conditions; details: cho-aa8
[7] = Ratio = (aerobic IC50 / hypoxic IC50) determined against UV-4 cells with an 18 hr exposure
[8] = Clonogenicity is evaluated for (CF10) the concentration x time to reduce the surviving fraction to 10% of controls in the clonogenic assay in UV-4 cells under aerobic conditions
[9] = Evaluated for cytotoxicity under aerobic conditions against AA8 cells using microassay; format: cell-based, Cricetulus griseus; details: cho-aa8
[10] = Evaluated for cytotoxicity under aerobic conditions against UV4 cells using microassay
[11] = Evaluated for growth inhibition of UV-4 cells under aerobic or hypoxic conditions (air/N2); details: uv4

SMILES	IC50 [2] [nM]	CT10 [3] [µM/h]	IC50 [4] [nM]	T1/2 [5] [h]	further results
O=Nc1ccc(N(CCCl)CCCl)cc1	40	<0.1	< 100	13.7	IC50 [1]: 2000 nM; IC50 [6]: 610 nM; Ratio [7]: 0.98; CT10 [8]: 1 µM
ICCN(CCI)c1ccccc1					IC50 [9]: 540 nM; IC50 [10]: 20 nM
Nc1cccc(N(CCCl)CCCl)c1	160		380		IC50 [1]: 2900 nM; IC50 [6]: 900 nM
Cc1ccc(N(CCCl)CCCl)cc1	210	2.9	400	1.5	
CS(=O)(=O)c1ccc(N(CCCl)CCCl)cc1	42000	1120		> 100	
CN(C)C(=O)c1cccc(N(CCCl)CCCl)c1	1500		7600	5.9	
O=[N+]([O-])c1ccc(N(CCBr)CCBr)cc1					IC50 [10]: 2800 nM
COc1ccc(N(CCCl)CCCl)cc1	410	0.23	450	0.4	
CSc1ccc(N(CCCl)CCCl)cc1	40	3.1	1620	7.2	
O=[N+]([O-])c1ccc(N(CCCl)CCCl)cc1	21500	750	15800	> 100	IC50 [9]: > 100000 nM; IC50 [10]: 22000 nM; IC50 [1]: > 100000 nM; IC50 [6]: 1000 nM; CT10 [8]: 760 µM
CS(=O)(=O)c1cccc(N(CCCl)CCCl)c1	6800		76000	56.6	
COc1cccc(N(CCCl)CCCl)c1	570		2700	6.3	
Nc1ccccc1N(CCCl)CCCl					IC50 [9]: 13500 nM; IC50 [11]: 600 nM
Cl.Nc1ccc(N(CCCl)CCCl)cc1				0.134	
CN(C)C(=O)c1ccc(N(CCCl)CCCl)cc1	1580	1	14600	12.6	
O=[N+]([O-])c1ccc(N(CCI)CCI)cc1					IC50 [10]: 5300 nM
O=[N+]([O-])c1ccccc1N(CCCl)CCCl					IC50 [9]: 21000 nM; IC50 [11]: 1000 nM
Cl.Nc1cccc(N(CCCl)CCCl)c1		0.8		1.6	Ratio [7]: 0.98; CT10 [8]: 0.8 µM
O=[N+]([O-])c1cccc(N(CCCl)CCCl)c1	13600		96000		
BrCCN(CCBr)c1ccccc1					IC50 [9]: 3400 nM; IC50 [10]: 140 nM
Nc1ccc(N(CCCl)CCCl)cc1	83		71		
ClCCN(CCCl)c1ccccc1	330		1200	2.5	IC50 [9]: 10500 nM; IC50 [10]: 330 nM
